Data taken from US20040039048A1, “Therapy with cannabinoid compounds for the treatment of brain tumors” (priority 2000, published 2004).
Entries after “also recorded” stand apart in the source; their conditions may differ.

System: C6 glioblastoma cells
Experiment: C6 glioblastoma cells inoculated in rat brain; survival and magnetic resonance
Assay type: in vivo, Wistar rats
Description: The injection of C6 glioblastoma cells in a rat brain is widely used as an experimental model for a malign brain tumor (Barth, R. F., J. Neurooncol. 36, 91-102, 1998). C6 glioblastoma cells were directly inoculated in the brain of Wistar rats and the tumors viewed by magnetic resonance. All animals left untreated died uniformly 12-18 days after inoculation with the cells (FIG. 3a). To evaluate the antitumoral potential of the cannabinoids, 12 days after inoculating the cells a group of animals was administered THC or WIN-55, 212-2 for 7 days through a cannula located at the site of inoculation. […] Thus, administration of cannabinoids managed to increase the survival time to 19-35 days in 9/15 of animals (treatment with THC) or to 19-43 days in 4/15 of animals (treatment with WIN-55, 212-2). Moreover, cannabinoids managed to completely eradicate the tumor in 3/15 of animals(treatment with THC) or 5/15 of animals (treatment with WIN-55, 212-2).
Male Wistar rats (250-300 g in body mass) were anaesthetized with 3% isofluorane in an oxygen mixture (0.8 l/min) and protoxide (0.4 l/min). 5×10^8 C6 glioblastoma cells were prepared in 100 μl of saline solution buffered with phosphate (PBS) and supplemented with 0.1% glucose, and stereotaxically injected in the frontal parietal lobule of the right hemisphere (4 mm to the right of bregma, 4.5 mm depth from the cranium) (Izquierdo, M et al., Gene Ther. 2, 66-69, 1995). The rats received dexamethasone (2 mg/l) and tetracycline (75 mg/kg of body weight) in water for 3 days before and 7 days after inoculation of the cells. A thorough monitoring of the tumors was performed by magnetic resonance with the methods described by other authors (Izquierdo, M et al., op cit; Cortés, M. L., de Felipe, P., Martin, V. Hughes, M. A. & Izquierdo, M. Gene Ther. 5, 1499-1507, 1998).
The administration of cannabinoids to rats began 12 days after inoculation of the cells. At this time the average size of the tumors was 70 mm^3 (interval 25-100 mm^3) as estimated by magnetic resonance (Izquierdo, M et al., op cit; Cortés, de Felipe, Martin, Hughes & Izquierdo, M, op cit.). Cannabinoids were administered by a cannula placed at the place of inoculation of the tumor and attached to the cranium by dental cement; a small stainless steel screw anchored the cannula and the dental cement. The cannula was subcutaneously connected by a catheter to an osmotic mini-pump (Alzet 2001) which operated at a flow of 1 μl/h for 7 days. The osmotic pump was filled with 500-2500 μg of THC or 50-250 μg of WIN-55,212-2 in 200 μl of PBS supplemented with 5 mg/l of bovine serum albumin (BSA), delipidized and dialyzed. The dose of cannabinoid employed depended on the characteristics of the tumor to be treated. Greater doses were used for large, dense and invasive tumors.

[1] = fraction of treated animals, 7 days through cannula from day 12

## CCCCCc1cc(O)c2c(c1)OC(C)(C)[C@@H]1CCC(C)=C[C@@H]21 [THC, Δ^9-tetrahydrocannabinol]
100 mm^3 glioblastoma, 500 μg of THC, image 7 days after ending treatment
  tumoral mass after treatment, magnetic resonance image of one rat: disappeared completely; also recorded: eradicated
Days after inoculation, in the responding animals, cannabinoid for 7 days through cannula at site of inoculation from day 12, untreated died 12-18 days
  survival time: 19 to 35 days
[1]
  animals with increased survival time: 9/15
  animals with tumor completely eradicated: 3/15
